Test results: PMC3862409 (International Journal for Parasitology, Drugs and Drug …, 2013)

Assays:
[1] = molecular target: T1, T. brucei hexokinase 1 (TbHK1), WT (Trypanosoma brucei brucei, UniProt Q38C42); assay: Coupled hexokinase assay; format: biochemical
T1 sequence (Q38C42 1-471): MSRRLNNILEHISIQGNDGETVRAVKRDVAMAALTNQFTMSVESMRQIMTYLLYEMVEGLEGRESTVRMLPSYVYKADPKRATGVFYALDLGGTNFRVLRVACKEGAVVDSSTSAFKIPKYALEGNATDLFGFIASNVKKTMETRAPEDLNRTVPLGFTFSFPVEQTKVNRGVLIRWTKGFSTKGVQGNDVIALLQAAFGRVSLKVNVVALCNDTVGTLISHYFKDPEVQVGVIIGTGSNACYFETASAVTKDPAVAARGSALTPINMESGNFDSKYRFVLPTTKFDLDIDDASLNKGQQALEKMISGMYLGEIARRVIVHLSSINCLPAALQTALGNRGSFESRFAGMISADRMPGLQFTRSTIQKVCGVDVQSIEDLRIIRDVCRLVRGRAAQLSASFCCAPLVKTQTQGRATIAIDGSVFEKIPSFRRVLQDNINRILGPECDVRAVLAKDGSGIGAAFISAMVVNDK

TbHK1 = molecular target: T2, TbHK1 (Trypanosoma brucei brucei, UniProt Q38C42); conditions: with respect to ATP; ref Sharlow et al., 2010b; cited from earlier work
T2 sequence (Q38C42 1-471): T1 sequence (Q38C42 1-471)

[2] = tested on: HK from Plasmodium falciparum (PfHK); conditions: more potent on PfHK; ref Harris et al., 2013; cited from earlier work

Rescue of enzyme activity by DTT added after inhibitor incubation ([1]; DTT 100 mM added after incubation with inhibitor): only modestly rescued enzyme activity
Structure (SMILES): O=c1c2ccccc2sn1-c1ccccc1 [EbS, 2-phenyl-1,2-benzisothiazol-3(2H)-one]
Reversibility of inhibition by dilution ([1]; 200-fold dilution of enzyme and inhibitor after pre-incubation): not reversible; also recorded: irreversible
Mode of inhibition (TbHK1): mixed inhibitors
Potency against PfHK relative to TbHK1 [2]: ~10 fold

“Also recorded” adds a separate entry of the source.
